KDM4E inh: JMJD2E (human) inhibition; B2RXH2; JMJD2E catalytic domain, FDH-coupled NADH fluorescence (FDH is formaldehyde dehydrogenase); Potency, µM (highest dose often 57.1 µM), for the others: at the top dose activity change, negative = inhibition, hits mostly inhibitors; actives 1.6% (n = 230,000); AID 2147; active means well fitted inhibition curve with a large enough effect, not every such curve was filed as active; inconclusive means small, poorly fitted or top-dose-only effect, or another doubt; inactive means no such curve, though single readings can be large or run the other way;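 further: potency means the concentration at half of the fitted maximal effect; 0% = wells with enzyme and -100% = buffer wells without enzyme; nearly all actives have a fitted effect of over 50% in size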
G9a inh: blocks human histone lysine methyltransferase G9a | actives 8.8% (n = 350,000) | Potency, µM (doses to about 102 µM), inactives show at the top dose activity, negative = inhibition, actives largely listed as inhibitors | Q96KQ7 | G9a H3K9 monomethylation, AlphaScreen, 2 h; further: potency means the concentration at half of the fitted maximal effect; on the % scale 0 is the no-effect control and ±100 the full control effect; nearly all actives have a fitted effect of over 75% in size
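Signal arises when biotinylated H3K9 peptide, once monomethylated, bridges streptavidin donor and antibody-captured acceptor beads. Enzyme at 20 nM was preincubated 15 min with test compounds; peptide 500 nM and SAM 20 uM then reacted for 2 h.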
Lamin A splicing: LMNA splicing modulation. Potency, µM (top dose mostly 46.1 µM), for inactives: at the highest dose ratio change, negative = inhibition, actives largely listed as inhibitors. HeLa LMNA splicing GFP/RFP minigene ratio, 48 h. actives 0.01% (n = 200,000); active means well fitted inhibition curve with a large enough effect in the signal ratio, with a control signal flat, not every such curve was filed as active; inconclusive means small, poorly fitted or top-dose-only effect, or effect the other way, or a change in a side signal; the % refers to the signal ratio; further: potency means the concentration at half of the fitted maximal effect; on the % scale 0 is the no-effect control and ±100 the full control effect
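Read-out is the ratio of GFP to DsRed2 object intensity, acquired by 488 nm laser-scanning cytometry on HeLa lamin A-EGFP minigene reporter cells. Compound incubation 48 hrs at 37 °C in Opti-MEM with 2% FBS; DMSO 0.5% final.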
miR-21 FLuc: miR-21 reporter, rising signal | 340,000 tested, under 10 active | AID 2288 | HeLa miR-21 FLuc reporter, luciferase, 48 h | Potency, µM (titrated, usually from 38.3 µM), for inactives: at the highest dose reporter change, positive = more light; active = well fitted rising curve with a large enough effect; inconclusive = small, poorly fitted or top-dose-only effect; inactive = no such curve, though single readings can be large or run the other way;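 further: % of control where 0% means no effect; miR-21 action dims this reporter so a rising signal means less miR-21 action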
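HeLa miR-21-FLuc reporter line, endogenous miR-21; 2000 cells/well in DMEM/10% FBS; compound titration up to ~40uM final, 48 h, 37 degree Celsius; luciferase detection reagent, 15 min lysis, CCD luminescence.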
ALDH1A1 block: ALDH1A1 (human) enzyme inhibition | Potency, µM (series often up to 75.3 µM), for the others: top-dose activity, negative = inhibition, usual class: inhibitors | Purified ALDH1A1, NADH fluorescence, propionaldehyde substrate | P00352 | AID 1030 | actives 7.3% (n = 220,000); active means well fitted inhibition curve with a large enough effect, not every such curve was filed as active; inconclusive means small, poorly fitted or top-dose-only effect, or another doubt; inactive means no such curve, though single readings can be large or run the other way;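 further: potency means the concentration at half of the fitted maximal effect; plate controls were no enzyme wells and a reference inhibitor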
Sfp PPTase inh: blocks B. subtilis Sfp PPTase activity; Biochemical Sfp PPTase activity, qHTS; Q9F4F7; Potency, µM, for inactives: max response, negative = inhibition, most hits filed as inhibitors; hit rate 3.5% among 310,000; active = well fitted inhibition curve with a large enough effect; inconclusive = small, poorly fitted or top-dose-only effect, or another doubt; inactive = no such curve, though single readings can be large or run the other way;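 also: the enzyme is Sfp with the accession as filed and its product quenches rhodamine fluorescence; potency is read from the fitted curve at half-maximal effect; 0% = enzyme reaction without inhibitor and -100% = no enzyme wells; top concentration of the series not given in the record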
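With Hepes-Na pH 7.6 buffer containing 10 mM MgCl2, Sfp (15 nM) modified BHQ-2-YbbR (12.5 uM) using rhodamine-CoA (5 uM). Two reads 30 minutes apart at 525/598 nm yielded each well's rate.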
Starred values were filed as active, the others as inactive; ? = inconclusive; . = not tested or not shown; [ ] = dose if it differs, or a comment. Hits are enriched below; roughly 13% of the tested compounds scored in any of these assays. Unless noted, the call rests on the fitted dose curve; in most records, active means well fitted curve in the direction sought with a large enough effect; inconclusive means small, poorly fitted or top-dose-only effect, or another doubt; inactive means no such curve, though single readings can be large; an effect the other way counts as inactive or inconclusive.

entry	KDM4E inh	G9a inh	Lamin A splicing	miR-21 FLuc	ALDH1A1 block	SMILES	Sfp PPTase inh
1	?	-30.2%	11.8%[46 µM]	-14.8%	3.9%	COCCN(C(=O)CCc1ccccc1OC)c1nnc(-c2cccnc2)s1	-9.2%
2	.	?	5.3%[46 µM]	-5.2%	.	COc1cc(NC(=O)CN2C(=O)c3ccccc3Sc3ccc(C(=O)N4CCCC4)cc32)cc(OC)c1	.
3	?	?	0.3%	-43.3%	?	CCOc1ccc(-c2nnc(N(CC)C(=O)C3CCC3)s2)cc1	39.8µM*
4	-1.0%	-12.2%[59 µM]	-8.0%	1.6%	11.2µM*	Cc1ccc(NC(=O)C(C)Sc2nc(=O)cc(N)n2-c2ccccc2)cc1 (stereo not drawn)	14.2%
5	.	.	.	.	8.6%[13.5 µM]	O=[N+]([O-])c1nccn1C[C@H](O)CN1CCCCC1	.
6	.	-31.0%[59 µM]	.	?	.	Cc1ccc2ncc(C(=O)c3ccc(C)c(C)c3)c(S(=O)(=O)c3ccccc3)c2c1	.
7	-0.1%	?	-12.4%	13.8%	12.6µM*	Cc1cccc(C(=O)c2cnc3ccccc3c2-c2ccccc2)c1	?
8	.	?	?	-6.6%	.	CCOc1ccc(C2C(=O)N(C3CCCCCC3)CC(=O)N2CCc2ccccc2)cc1OC (stereo not drawn)	.
9	.	29.4%	.	-0.1%	.	Cn1cc(S(=O)(=O)N2CCOCC2)cc1C(=O)NCc1ccc(Cl)cc1	13.0%
10	.	39.8µM*	.	-1.5%	.	CN(C)c1ccc(CNC(=O)c2cc(S(=O)(=O)N3CCOCC3)cn2C)cc1	27.4%

entry	KDM4E inh	G9a inh	Lamin A splicing	miR-21 FLuc	ALDH1A1 block	SMILES	Sfp PPTase inh
11	-8.8%	?	-18.8%	0.9%	17.8µM*	CN(C)c1ccc(CNC(=O)C2CCN(S(=O)(=O)c3ccc4c(c3)CCC(=O)N4)CC2)cc1	-13.3%
12	.	?	-14.7%[46 µM]	27.7%	.	CN(C)c1ccc(CNC(=O)C2CCCN(S(=O)(=O)c3ccc4c(c3)CCCC(=O)N4)C2)cc1 (stereo not drawn)	.
13	.	-26.8%[59 µM]	.	-1.7%	.	Cc1ccc2oc(=O)c3cc(C(=O)Nc4ccccc4C(N)=O)sc3c2c1	.
14	.	-9.0%[0.501 µM]	.	-24.2%	.	CC1CCc2sc3ncnc(N4CCN(CCO)CC4)c3c2C1 (stereo not drawn)	-3.0%
15	.	2.7%[0.501 µM]	.	.	.	[O-][n+]1c2ccccc2c2n1CCN1CCOC21c1ccc(Cl)cc1 (stereo not drawn)	.
16	6.4%	16.1%[59 µM]	-21.8%	-4.0%	15.8µM*	O=C(c1cccc(Br)c1)N1CCN(C(=O)c2cccc(Br)c2)CC1	16.6%
17	.	14.1µM*	.	7.7%	.	O=C(c1cccc(F)c1)N1CCN(Cc2cccc(Br)c2)CC1	-29.2%
18	.	-25.0%[59 µM]	.	-0.8%	.	CCOC(=O)c1ccc(NC(=O)c2cc(=O)c3ccc(C)c(C)c3o2)cc1	.
19	?	-27.5%	?	-1.6%	-3.0%	Cc1ccc(Cn2ccc(NC(=O)c3cc(-c4ccc5c(c4)OCO5)on3)n2)cc1	12.9%
20	-13.8%	.	6.1%	-30.5%	3.98µM*	CC(C)(C)c1ccc(Cn2ccc(-c3ccc4c(c3)OCO4)n2)cc1	-1.0%

entry	KDM4E inh	G9a inh	Lamin A splicing	miR-21 FLuc	ALDH1A1 block	SMILES	Sfp PPTase inh
21	-10.3%	50.1µM*	?	-1.1%	-2.5%	COc1ccc(-c2[nH]ncc2CN2CCN(c3ccc(F)cc3)CC2)cc1	14.3%
22	-3.1%	70.8µM*	.	9.0%	14.1µM*	Fc1ccc(N2CCN(Cc3cn[nH]c3-c3ccccc3)CC2)cc1	-27.4%
23	-4.6%	?	.	6.1%	0.8%	Fc1ccc(-c2[nH]ncc2CN2CCN(c3ccc(F)cc3)CC2)cc1	16.2%
24	-19.4%	35.5µM*	-12.7%	-0.5%	-10.0%	COc1cc(OC)c(CN2CCN(c3ccc(F)cc3)CC2)cc1Br	?
25	.	3.2%[2.33 µM]	.	.	.	COc1ccc(CCC(=O)Nc2cccc(S(=O)(=O)N3CCCC3)c2)cc1OC	.
26	0.8%	10µM*	-3.1%	-22.6%	?	Cc1ccc(-c2nc3ncccn3c2Nc2ccc3c(c2)OCO3)o1	-13.2%
27	-6.3%	.	.	-35.6%	.	Cc1ccc(Nc2c(-c3ccc(C)o3)nc3ncccn23)cc1	11.2µM*
28	-6.5%	?	?	-14.3%	-2.9%	Cc1ccc(-c2nc3ncccn3c2Nc2ccccc2C)o1	39.8µM*
29	?	?	?	0.1%	?	Cc1ccc(-c2nc3ncccn3c2NC2CCCC2)o1	-3.2%
30	-1.2%	10µM*	-2.5%	13.1%	-4.7%	Brc1ccc(-c2nc3ncccn3c2NC2CCCCC2)o1	-1.0%

entry	KDM4E inh	G9a inh	Lamin A splicing	miR-21 FLuc	ALDH1A1 block	SMILES	Sfp PPTase inh
31	.	.	.	.	.	COc1ccc(-c2c(C3C4C=CCCC4(C)C(=O)N3Cc3ccccc3)ccc3ccccc23)cc1OC (stereo not drawn)	-3.2%
32	.	12.4%	.	-0.4%	.	CS(=O)(=O)N(CC(=O)N1CCCCCC1)c1cccc(F)c1	8.8%
33	.	-27.1%[59 µM]	.	15.1%	.	CCOc1ccccc1C1C(C(=O)Nc2ccccc2)=C(C)Nc2c(C(=O)Nc3ccc(F)cc3)cnn21 (stereo not drawn)	.
34	7.08µM*	.	.	.	?	COc1c(O)cc2c(=O)oc3c(OC)c(O)cc4c(=O)oc1c2c34	-26.8%
35	.	17.8%[59 µM]	.	-8.3%	.	COc1cccc(CCNC(=O)c2cnc3sc(N4CCOCC4)nn3c2=O)c1	.
36	?	-0.4%	.	-9.9%	14.1µM*	O=C(N/N=C/c1c(O)n(-c2ccccc2Cl)c(=O)c2ccccc12)c1cccnc1	14.5%
37	28.2µM*	?	.	15.1%	?	COc1ccc(Cn2c(O)c(/C=N/NC(=O)c3cccnc3)c3ccccc3c2=O)cc1	17.6%
38	?	9.0%	?	7.3%	10µM*	O=C(N/N=C/c1c(O)n(Cc2ccccc2)c(=O)c2ccccc12)c1cccnc1	-14.2%
39	.	0.6%	.	-13.9%	.	O=C(N/N=C/c1cccc2ccccc12)c1cccnc1	14.0%
40	.	10.9%[59 µM]	.	-1.7%	.	COc1ccc(C2CC(=O)c3c([nH]c(C(=O)OC4CCCCCC4)c3C)C2)cc1 (stereo not drawn)	.

Complete entries, quoted from the list.
Listed for `COc1cccc(CCNC(=O)c2cnc3sc(N4CCOCC4)nn3c2=O)c1` → KDM4E inh: .; G9a inh: 17.8%[59 µM]; Lamin A splicing: .; miR-21 FLuc: -8.3%; ALDH1A1 block: .; Sfp PPTase inh: .
Listed for `O=C(N/N=C/c1c(O)n(-c2ccccc2Cl)c(=O)c2ccccc12)c1cccnc1` → KDM4E inh: ?; G9a inh: -0.4%; Lamin A splicing: .; miR-21 FLuc: -9.9%; ALDH1A1 block: 14.1µM*; Sfp PPTase inh: 14.5%
Listed for `COc1ccc(Cn2c(O)c(/C=N/NC(=O)c3cccnc3)c3ccccc3c2=O)cc1` → KDM4E inh: 28.2µM*; G9a inh: ?; Lamin A splicing: .; miR-21 FLuc: 15.1%; ALDH1A1 block: ?; Sfp PPTase inh: 17.6%

Remaining list, next part
entry	KDM4E inh	G9a inh	Lamin A splicing	miR-21 FLuc	ALDH1A1 block	SMILES	Sfp PPTase inh
41	.	?	.	-6.4%	.	COc1cc(N)c(Cl)cc1C(=O)OCC(=O)c1cccs1	3.8%
42	.	-44.9%	.	-6.1%	.	Cc1cc(NC(=O)C(C)Oc2ccccc2)no1 (stereo not drawn)	7.3%
43	-22.2%	?	-7.2%	1.6%	8.91µM*	CCCc1[nH]nc2c1C(c1cccc(OC(=O)c3ccco3)c1)C(C#N)=C(N)O2 (stereo not drawn)	-15.2%
44	-17.3%	-33.3%[12.7 µM]	23.5%	-2.6%	?	CCCc1[nH]nc2c1C(c1ccc(OC)c(CSC3=NCCS3)c1)C(C#N)=C(N)O2 (stereo not drawn)	79.4µM*
45	-25.9%	-3.8%[12.7 µM]	7.6%	-2.1%	22.4µM*	CC(C)c1[nH]nc2c1C(c1cccc(OC(=O)N3CCOCC3)c1)C(C#N)=C(N)O2 (stereo not drawn)	-0.4%
46	-4.9%	39.8µM*	5.6%	-3.0%	?	CCCc1[nH]nc2c1C(c1cc(OC)ccc1F)C(C#N)=C(N)O2 (stereo not drawn)	-4.8%

Bioassay records (PubChem)
